Measurements published in patent US20220125752A1, “LEVODOPA DERIVATIVE AND USE THEREOF” (UNIVERSITY OF TSUKUBA, priority 2019, published 2022).

Assay: Uptake to blood by oral administration
Format: in vivo, ICR mice
Conditions: oral (tube); L-DOPA 25 mg/kg or Nano^DOPA 105 mg polymer/kg (127 mmol L-DOPA/kg)

initial change in the concentration of L-DOPA in the blood: rapidly increased initially
persistence of the concentration of L-DOPA in the blood: rapidly metabolized
SMILES: N[C@@H](Cc1ccc(O)c(O)c1)C(=O)O [L-DOPA, 3,4-dihydroxy-L-phenylalanine]
